miR-21 reporter = raises the signal of a miR-21 reporter | HeLa miR-21 FLuc reporter, luciferase, 48 h | Potency, µM (doses to about 38.3 µM) | 340,000 tested, under 10 active | AID 2288; active = well fitted rising curve with a large enough effect; inconclusive = small, poorly fitted or top-dose-only effect; inactive = no such curve, though single readings can be large or run the other way;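 also: miR-21 action dims this reporter so a rising signal means less miR-21 action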
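Luminescence from a firefly luciferase reporter carrying a miR-21 binding site downstream, stably expressed under a CMV promoter in HeLa cells that make miR-21 endogenously, reports miRNA modulation after 48 h compound exposure up to approximately 40uM final.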
BRCA1 expr act = BRCA1 expression activation. MCF7-BRCA1-FFLuc reporter, luminescence, 48 h; response scale: scaled: vehicle 0%, 10 µM genistein 100%. Potency, µM (top dose mostly 46.1 µM), hits mostly activators. 1.1% of 380,000 active; note: nearly all actives have a fitted effect of over 80% in size
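48 h compound treatment of MCF7-BRCA1-FFLuc cells (phenol-red free MEM, 37 °C), then 15 min with luciferase substrate and luminescence imaging.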
p53 reactivator = restores transcriptional activity of mutant p53; H1299 p53-A138V BP100-luciferase reporter, luminescence, 24 h; Potency, µM (doses to about 92.2 µM), hits mostly activators; 0.063% of 320,000 active; note: nearly all actives have a fitted effect of over 45% in size
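p53-null H1299 cells stably carrying temperature-sensitive p53-A138V and a BP100-luciferase reporter were pinned with compounds (4-point, 1:5 series) and held 24 hrs at 37 deg C. Luminescence was read 10 min after detection reagent.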
Anesthetic bind = binds horse apoferritin like a general anesthetic | apoferritin/1-aminoanthracene competitive binding, fluorescence | 0.074% of 350,000 active | P02791 | AID 485281 | Potency, µM (highest dose often 77.5 µM), hits mostly inhibitors; note: nearly all actives have a fitted effect of over 20% in size
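Read-out: endpoint 1-AMA fluorescence, excitation 380 nm and emission 535 nm, after compounds sit 10 min at room temperature with 10 uM horse-spleen apoferritin in 50% saturated 1-AMA/PBS. Values come from four-parameter Hill fits.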
Each line names hits and unclear results; the compound was inactive in the other large screens. Sampled rows, rich in hits. Any-hit rate of the full collection: about 1.1%. Unless noted, calls come from the whole dose curve; as a rule, active = well fitted curve in the direction sought with a large enough effect; inconclusive = small, poorly fitted or top-dose-only effect, or another doubt; inactive = no such curve, though single readings can be large; an effect the other way counts as inactive or inconclusive.

CCOC(=O)CCCCCC(=O)Nc1ccc2c(c1)CC(=O)N([C@@H](C)CO)C[C@@H](C)[C@@H](CN(C)C(=O)Nc1ccc(C(F)(F)F)cc1)O2	none (no result: miR-21 reporter, Anesthetic bind)
Fc1ccc(Nc2nc(SCc3ccccc3F)nc3ccccc23)cc1	none (no result: BRCA1 expr act, p53 reactivator)
CC1(C)CC(=O)c2c(noc2-c2ccccc2)C1	Anesthetic bind 10µM
O=C(NCc1ccccn1)c1cc(S(=O)(=O)N2CCCCC2)ccc1Cl	none (no result: miR-21 reporter, Anesthetic bind)
Cc1ccc(OCCn2cnc3ccccc3c2=O)c([N+](=O)[O-])c1	BRCA1 expr act 4.5µM
Cc1cc(OCCn2cnc3ccccc3c2=O)ccc1[N+](=O)[O-]	none
Cc1cccc(Cn2c(SCc3ccc(C(=O)NCc4ccccc4F)cc3)nc3ccncc32)c1	none (no result: BRCA1 expr act, p53 reactivator)
CN(C)c1ncnc2c1ncn2[C@H]1CN(Cc2ccc(Cl)cc2)C[C@@H](CO)O1	none (no result: miR-21 reporter, p53 reactivator, Anesthetic bind)
CCn1c(C)nc2cc(C(=O)NNC(=S)Nc3ccc(F)cc3)ccc21	BRCA1 expr act 10µM
CCn1c(C)nc2cc(C(=O)NNC(=S)Nc3ccc(Cl)cc3Cl)ccc21	none
CCn1c(C)nc2cc(C(=O)NNC(=S)Nc3ccccc3Cl)ccc21	BRCA1 expr act 4µM, p53 reactivator inconclusive
COc1cc(C2C(C(=O)Nc3ccccc3C)=C(C)Nc3nc(SCc4cc(C)ccc4C)nn32)ccc1O (stereo unspecified)	none (no result: p53 reactivator)
Cn1c(-c2ccc(C=O)s2)nc2ccccc21	BRCA1 expr act 11µM
Cn1c(-c2cccs2)nc2ccccc21	BRCA1 expr act 7.9µM
Cc1ccc2c(c1)N(CCCC(=O)Nc1cccc(C(F)(F)F)c1)C(=O)CO2	none
CC[n+]1ccnc2ccccc21	none (no result: miR-21 reporter, p53 reactivator, Anesthetic bind)
O=C(Nc1ccc(-c2cnco2)cc1)c1ccccc1	BRCA1 expr act 2.8µM
Cc1ccc2c(cnn2C(=O)CCCC(=O)NCc2ccc(F)cc2)c1	none
Cc1ccc2c(cnn2C(=O)CCCC(=O)NC(C)c2ccccc2)c1 (stereo unspecified)	BRCA1 expr act 2.5µM
CC1CCc2c(sc(/N=C/N(C)C)c2C#N)C1 (stereo unspecified)	BRCA1 expr act 13µM
Cc1cc(C)cc(N2CC(c3nnc(NC(=O)c4ccco4)s3)CC2=O)c1 (stereo unspecified)	none (no result: BRCA1 expr act, p53 reactivator)
CN=C1S/C(=C\c2ccc(O)c(OC)c2)C(=O)N1C	BRCA1 expr act 10µM (no result: miR-21 reporter, p53 reactivator, Anesthetic bind)
CC(C(=O)O)c1ccc(C(=O)c2ccccc2)s1 (stereo unspecified)	BRCA1 expr act 14µM (no result: miR-21 reporter, Anesthetic bind)
O=C(O)Cc1ccc(C(=O)c2ccccc2)s1	none
Cc1ccc(-c2ccc(CCC(=O)O)n2-c2cccc(C(=O)O)c2)cc1	BRCA1 expr act 7.1µM, p53 reactivator inconclusive
Cc1ccc(-c2ccc(CCC(=O)O)n2-c2ccc(C(=O)O)cc2)cc1	none
CCOC(=O)c1ccccc1N/C=C/C(=O)c1cccs1	p53 reactivator 16µM
CCOC(=O)c1ccccc1NC(=O)c1cccs1	Anesthetic bind inconclusive
COc1ccc(CNC(=O)c2ccc(C(C)(C)C)cc2)cc1	BRCA1 expr act 3.5µM, Anesthetic bind inconclusive
CCC1(C)NC(c2ccc3c(c2)OCO3)=CC(c2ccccc2O)N1 (stereo unspecified)	none (no result: miR-21 reporter, p53 reactivator, Anesthetic bind)
Cc1nc(C(C)NC(=O)c2cc(COc3ccc(C)c(C)c3)on2)c(C)s1 (stereo unspecified)	BRCA1 expr act 5.6µM, p53 reactivator inconclusive
CCOc1ccc(CCNC(=O)Cn2nc(CC)n3c(cc4ccccc43)c2=O)cc1	none (no result: BRCA1 expr act, p53 reactivator)
O=C1CCCN1CCC(=O)N1CCCC(CO)(Cc2ccccc2)C1 (stereo unspecified)	p53 reactivator 28µM
CCCN1C(=O)C(Cc2nc3ccccc3c(=O)n2-c2cccc(C)c2)c2ccccc21 (stereo unspecified)	none (no result: BRCA1 expr act, p53 reactivator)
COc1ccc(OCc2nc(N)nc(Nc3ccc(C)cc3)n2)cc1	BRCA1 expr act 16µM, Anesthetic bind inconclusive
COc1ccc(Nc2nc(N)nc(CSc3nnc(N)s3)n2)cc1	BRCA1 expr act inconclusive, p53 reactivator inconclusive
COc1ccc(Nc2nc(N)nc(CSc3nccn3C)n2)cc1	BRCA1 expr act 3.2µM
CCOC(=O)c1cc2ccc3ccccc3c2s1	p53 reactivator 25µM
CCOC(=O)c1cc2ccc3ccccc3c2oc1=O	none
COc1ccccc1NOC(=O)CCOc1ccccc1	none (no result: miR-21 reporter, p53 reactivator, Anesthetic bind)
COc1ccccc1CNC(=O)C1(C)CCCCN1C (stereo unspecified)	none (no result: miR-21 reporter, p53 reactivator, Anesthetic bind)
Cn1c(N)c(C(=O)CSc2ccc3c(c2)OCCO3)c(=O)n(C)c1=O	none
CCNc1nnc(SCC(=O)c2cc(C)n(C3CC3)c2C)s1	none (no result: miR-21 reporter, Anesthetic bind)
Cc1cc(C(=O)CSc2ccc3c(c2)OCCO3)c(C)n1C1CC1	BRCA1 expr act 11µM, p53 reactivator inconclusive
C/C(N)=C(/C#N)C(=O)CSc1ccc2c(c1)OCCO2	BRCA1 expr act inconclusive, p53 reactivator 40µM
CCOc1ccc(-c2nnc(N)s2)cc1	BRCA1 expr act inconclusive, p53 reactivator inconclusive
CCCCOc1ccc(-c2ncc(N)cn2)cc1	BRCA1 expr act 2.5µM
CCCCOc1ccc(-c2nnc(N)s2)cc1	BRCA1 expr act 6.3µM
CCCCOc1ccc(C(N)=O)cc1	none (no result: miR-21 reporter, p53 reactivator, Anesthetic bind)
Cc1ccc(NC(=O)c2cc3ccccc3oc2=O)cc1S(=O)(=O)N(C)C	none
CN(c1ccccc1)S(=O)(=O)c1cccc(NC(=O)c2cc3ccccc3oc2=O)c1	BRCA1 expr act 11µM
COc1cccc(-c2nnc(NC(=O)c3cccs3)s2)c1	BRCA1 expr act 4µM
Cc1cccc2[nH]c(-c3ccc(NC(=O)c4ccco4)cc3)nc12	BRCA1 expr act 1.8µM, p53 reactivator inconclusive
COc1cccc(-c2nnc3sc(-c4ccco4)nn23)c1	BRCA1 expr act 8.9µM
O=C(Nc1ccc2nc(-c3ccccc3)[nH]c2c1)c1ccco1	BRCA1 expr act inconclusive
Cc1ccc(NC(=O)c2ccc(OC(=O)c3ccco3)cc2)cc1	BRCA1 expr act inconclusive, p53 reactivator inconclusive
Cc1ccc(Oc2ccc(NC(=O)c3ccco3)cc2)cc1	BRCA1 expr act 11µM, Anesthetic bind inconclusive
Cc1c(C(=O)NC(C)c2ccccc2)sc2nc3n(c(=O)c12)CCCC3 (stereo unspecified)	none (no result: BRCA1 expr act, p53 reactivator)
CCN(C(=O)COC(=O)c1[nH]c(C)c(C(C)=O)c1C)c1c(N)n(Cc2ccccc2)c(=O)[nH]c1=O	none (no result: miR-21 reporter, Anesthetic bind)
CCOc1ccc(CC(=O)Nc2sc(Cc3ccccc3)cc2C(N)=O)cc1OCC	none
COc1ccc(-c2nnc(NC(=O)c3ccco3)s2)cc1	BRCA1 expr act inconclusive, p53 reactivator inconclusive
O=C(Nc1nnc(Cc2ccccc2)s1)c1ccco1	BRCA1 expr act 13µM
NC(=O)c1cc(Cc2ccccc2)sc1NC(=O)c1ccco1	BRCA1 expr act 7.9µM, p53 reactivator inconclusive
COc1cccc(-c2nnc(NC(=O)c3ccco3)s2)c1	BRCA1 expr act 6.3µM
Cc1ccc(-c2nnc(NC(=O)c3ccco3)s2)cc1	BRCA1 expr act 2.2µM, p53 reactivator inconclusive
O=C(CSc1ncccn1)NC(=O)NC1CCCC1	none (no result: miR-21 reporter, p53 reactivator, Anesthetic bind)
Cc1ccccc1Oc1ccc(Oc2ccccc2C)nn1	BRCA1 expr act 7.1µM
CC(=O)Nc1cccc(NC(=O)c2ccc3[nH]c(C)c(C)c3c2)c1	BRCA1 expr act 10µM
Cc1cc(NC(=O)c2ccc3[nH]c(C)c(C)c3c2)ccn1	none
